Assay: pH and solubility of solutions, suspensions and formulae
Assay type: physicochemical

## basic zinc carbonate (ZnCO3. 3 Zn(OH)2)
36 mM (zinc acetate and zinc carbonate also 72 mM)
  pH of stock solution in de-ionized water: 8.2
Concentration 1%
  pH of the test composition: 1% (pH 7.2)
Concentration 3%
  pH of the test composition: 3% (pH 7.5)
Concentration 5%
  pH of the test composition: 5% (pH 7.5)
